The target in this test is c-Src(1-530) (Homo sapiens (Human), UniProt P12931). Nature of the test: Kinase inhibition assay (KinaseProfiler, 33P-ATP). As to conditions: ATP at Km.

Amino acid sequences for entries named in this document (tags omitted). A change or cut given only in a name is not applied to a line headed by its entry.
UniProt P12931: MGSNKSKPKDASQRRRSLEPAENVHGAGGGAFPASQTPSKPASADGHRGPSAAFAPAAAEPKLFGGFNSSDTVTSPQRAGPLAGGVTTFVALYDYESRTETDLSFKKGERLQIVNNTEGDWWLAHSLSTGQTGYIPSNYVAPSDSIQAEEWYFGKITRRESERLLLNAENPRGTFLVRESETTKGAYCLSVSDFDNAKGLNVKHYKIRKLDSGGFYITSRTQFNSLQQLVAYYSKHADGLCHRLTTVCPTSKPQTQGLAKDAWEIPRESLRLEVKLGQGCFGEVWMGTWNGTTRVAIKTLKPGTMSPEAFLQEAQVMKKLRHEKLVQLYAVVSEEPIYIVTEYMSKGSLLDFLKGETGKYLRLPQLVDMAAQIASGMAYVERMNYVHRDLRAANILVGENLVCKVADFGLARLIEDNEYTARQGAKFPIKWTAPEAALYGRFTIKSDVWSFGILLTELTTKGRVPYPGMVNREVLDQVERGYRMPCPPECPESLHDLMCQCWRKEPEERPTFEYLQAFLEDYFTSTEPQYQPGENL

For the compound `Cc1ccc(C(=O)Nc2ccc(CN3CCN(C)CC3)c(C(F)(F)F)c2)cc1C#Cc1nn([C@@H]2CCOC2)c2ncnc(N)c12` [Compound 20], the half-maximal inhibitory concentration (IC50) – broadly, the concentration that inhibits the measured activity by half – was 7 nM. The same measure for `Cc1ccc(C(=O)Nc2ccc(CN3CCN(C)CC3)c(C(F)(F)F)c2)cc1C#Cc1nn([C@H]2CCOC2)c2ncnc(N)c12` [Compound 21]: 7 nM.

Values taken from patent publication US10266537B2, “3-acetylenyl-pyrazole-pyrimidine derivative, and preparation method therefor and uses thereof” (Si Chuan University, priority 2015, dated 2019).
